Experimental data taken from patent publication US8992933B2, “Methods for activating T cells and modulating an immune response” (New York University, priority 2011, dated 2015).

Experiments:
CCR6+ IL-17- TM cells = experiment: IL-17 induction by cytokine culture of sorted, activated CCR6+IL-17- memory T cells (intracellular staining, FACS); assay type: cell-based, human; conditions: IL-2-supplemented medium for 6 days, restimulation
Method: (§1) Peripheral Blood Mononuclear Cells (PBMCs) from healthy individuals (New York Blood Center, New York, N.Y.) were prepared using Ficoll-paque plus (GE Amersham, Uppsala, Sweden). Whole blood samples from rheumatoid arthritis patients were purchased from Bioreclamation (New York, N.Y.) and were processed similar to healthy donor blood. All healthy donor and patient samples were consented prior to purchase, were none-identifiable and approved by institutional human subjects board. CD4^+ T cells were isolated using Dynal CD4 Positive Isolation Kit (Invitrogen, Carlsbad, Calif.) directly from purified PBMCs and were >99% pure. CD4^+ T cells were sorted by FACS ARIA cell sorter (BD, San Jose, Calif.) into CD45RO^+ CD25^− memory T (TM) cells. TM cells were activated either by anti-CD3 and anti-CD28 (aCD3/aCD28) coated beads (1:4 beads:cells ratio) for 18-24 hours, or by Phorbol 12-myristate 13-acetate (PMA) and ionomycin for 4 hours and further FACS sorted based on CCR6 and IL-17 expression into CCR6^− IL-17^−, CCR6^+IL-17^+, or CCR6^+IL-17^− subsets (as determined by secretion assay labeling, see below). Sorted cells (>99% pure) were cultured in serum-free Xvivo-15 medium (Lonza, Wakersville, Md.) at 37° C. and 5% CO2 for 6-7 days prior to restimulation with PMA and ionomycin (see below). […]

CCR6- TM cells = experiment: IL-17 induction by cytokine culture of sorted, activated CCR6-IL-17- memory T cells; assay type: cell-based, human; conditions: cultured with the cytokine, restimulation
Method: as §1

[1] = tested on: CCR6+ IL-17- memory T cells; experiment: IL-17 production by sorted mouse memory T cells after culture with IL-2; assay type: cell-based, wild-type C57B/6 mice; conditions: 6 days in culture with IL-2; CCR6- cells did not
Method: Wild-type C57B6/J mice were purchased from Jackson Laboratories (Bar Harbor, Me.) and all mice were used in accordance with a protocol approved by the animal care and use committee of Sirtris pharmaceuticals. Single cell suspensions were prepared from spleens and peripheral lymph nodes following red blood cell lysis (Sigma-Aldrich, USA). CD4^+ T cells were enriched by magnetic cell sorting using the mouse CD4^+ T cell isolation kit II (Miltenyi Biotec, Auburn, Calif.) in accordance with manufacturers instructions, and these cells were stimulated for 18-24 hours using plate-bound anti-CD3 (eBioscience) and anti-CD28 (BD Biosciences) antibodies as previously described (Sundrud, et al., Science (New York, N.Y.) 2009 324: 1334-1338). Activated T cells were then stained for cell surface receptors and subjected to mouse IL-17 capture assay for FACS sorting into CD62L^loCCR6^−IL-17^−, CD62L^loCCR6^+IL-17^−, or CD62L^loCCR6^+IL-17^+ subsets (see below). Sorted mouse T cell populations were cultured in DMEM medium (Mediatech, Inc., USA) containing 10% FCS (Invitrogen). To expand sorted T cell populations, 10 U/mL recombinant human IL-2 (BD Biosciences) and mouse CD3/CD28 T cell expander beads (1:2 beads:cells ratio) (Invitrogen) were added and cells were cultured for 6 days prior to restimulation. […]

[2] = tested on: CCR6+ IL-17- TM cells from RA patients; experiment: IL-17 induction in memory T cells from rheumatoid arthritis patients after culture with IL-2; assay type: cell-based, human; conditions: similar levels to healthy adult donors, CCR6- cells did not
Method: as §1

## IL-2: recombinant human IL-2 (BD Biosciences), γc-cytokine
CCR6+ IL-17- TM cells
  CCR6+ cells initially sorted as IL-17- that expressed IL-17 after culture: 20-40%
CCR6- TM cells
  IL-17 expression in CCR6- TM cells: remained largely IL-17 negative
[1]
  IL-17 production by CCR6+ IL-17- mouse memory T cells: capable of producing IL-17
[2]
  IL-17 in CCR6+ IL-17- memory T cells from RA patients: upregulated IL-17
